{"sequences": {"note": "By UniProt entry, the sequences of proteins in these tests, tags left out. Residues count along the entry.", "UniProt P52927, 2-108 limits assumed": "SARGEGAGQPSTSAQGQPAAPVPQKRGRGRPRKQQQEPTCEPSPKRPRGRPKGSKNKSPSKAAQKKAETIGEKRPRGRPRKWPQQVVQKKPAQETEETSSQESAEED"}, "source": "paper PMC7606612", "about": "“Identification of HMGA2 inhibitors by AlphaScreen-based ultra-high-throughput screening assays” (Scientific Reports, 2020)", "key": {"[1]": {"molecular_target": "HMGA2-DNA interactions (Mus musculus, UniProt P52927)", "experiment": "Protein-DNA interaction ELISA (PDI-ELISA) assay", "conditions": "inhibition of HMGA2-DNA interactions"}, "[2]": {"molecular_target": "HMGA2 (Mus musculus, UniProt P52927)", "experiment": "Isothermal titration calorimetry (ITC), titration into HMGA2", "conditions": "for HMGA2 Binding site: number of sites"}}, "data": [{"smiles": "Cc1ccc(C(=O)Nc2cc(S(=O)(=O)O)cc3ccc(S(=O)(=O)O)cc23)cc1NC(=O)Nc1cc(C(=O)Nc2cc(S(=O)(=O)O)cc3ccc(S(=O)(=O)O)cc23)ccc1C", "values": [{"measurement": "IC50", "setting": "[1]", "result": 6.95, "unit": "µM"}, {"measurement": "HMGA2 Ka (M^−1)", "setting": "[2]; first type of binding sites", "result": "7.17 ± 4.68 × 10^6 M^−1"}, {"measurement": "HMGA2 Binding site", "setting": "[2]; first type", "result": 2.12}, {"measurement": "HMGA2 Binding site", "setting": "[2]; second type", "result": 0.3}, {"measurement": "HMGA2 Ka (M^−1)", "setting": "[2]; second type of binding sites", "result": "2.27 ± 0.57 × 10^5 M^−1"}]}]}
